uPA generation = inhibitors of cell surface uPA generation. cell surface uPA generation assay, qHTS. Potency, µM (highest dose often 38.3 µM), for the others: top-dose activity change, negative = inhibition, actives largely listed as inhibitors. 330,000 tested, 0.31% active. AID 540303; active = well fitted inhibition curve with a large enough effect; inconclusive = small, poorly fitted or top-dose-only effect; inactive = no such curve, though single readings can be large or run the other way; tested in mouse RAW 264.7 cells; note: potency is the fitted concentration of half-maximal effect; % is set by controls: 0 for no effect and ±100 for the full control effect; nearly all actives have a fitted effect of over 55% in size
miR-21 reporter = miR-21 reporter, rising signal. HeLa miR-21 FLuc reporter, luciferase, 48 h. Potency, µM (highest dose often 38.3 µM), for the others: at the highest dose reporter change, positive = more light. 340,000 tested, under 10 active. AID 2288; active = well fitted rising curve with a large enough effect; inconclusive = small, poorly fitted or top-dose-only effect; inactive = no such curve, though single readings can be large or run the other way;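 further: % of control where 0% means no effect; miR-21 action dims this reporter so a rising signal means less miR-21 action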
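HeLa miR-21-FLuc reporter line, endogenous miR-21; 2000 cells/well in DMEM/10% FBS; compound titration up to ~40uM final, 48 h, 37 degree Celsius; luciferase detection reagent, 15 min lysis, CCD luminescence.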
TDP1 block = TDP1 (human) enzyme inhibition; Q9NUW8; recombinant TDP1, AlphaScreen DNA substrate cleavage; Potency, µM (series often up to 130 µM), for the others: at the highest dose activity change, negative = inhibition, usual class: inhibitors; 350,000 tested, 0.28% active; AID 485290; note: potency is the fitted concentration of half-maximal effect; % is set by controls: 0 for no effect and ±100 for the full control effect; nearly all actives have a fitted effect of over 40% in size
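E. coli-derived human Tdp1, 1 nM final. Cpd preinc 15 min RT; substrate 15 nM final, 5 min RT; AS bead mix 10 ug/ml final, 10 min RT. Signal loss = tyrosine-FITC cleavage. No-enzyme wells = max signal.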
DT40 TDP1 CPT = DT40-hTDP1 cell growth loss with CPT; chicken DT40 Tdp1-/-;hTDP1 cells + 20 nM CPT, ATP luminescence, 48 h; Potency, µM (top dose mostly 46.2 µM), for the others: at the highest dose activity change, negative = growth inhibition, usual class: inhibitors; 420,000 tested, 12% active; AID 686979; note: potency is the fitted concentration of half-maximal effect; % is set by controls: 0 for no effect and ±100 for the full control effect; nearly all actives have a fitted effect of over 55% in size
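Cell growth measured by CellTiter-Glo luminescence after a minimum 48 h, 37 C compound exposure with 20 nM CPT in Tdp1-knockout DT40 cells stably expressing hTDP1, seeded 400/well; qHTS titration format.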
DT40 TDP1 no CPT = qHTS for Inhibitors of human tyrosyl-DNA phosphodiesterase 1 (TDP1): qHTS in cells in absence of CPT; Potency, µM (series often up to 46.2 µM), for the others: top-dose activity change, negative = growth inhibition, hits mostly inhibitors; 420,000 tested, 15% active; AID 686978, 2013; DT40 Tdp1-/- hTDP1 cells, no CPT, ATP luminescence, 48 h; note: potency is the fitted concentration of half-maximal effect; % is set by controls: 0 for no effect and ±100 for the full control effect; nearly all actives have a fitted effect of over 55% in size
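A cellular qHTS used chicken DT40 cells lacking endogenous Tdp1 but carrying stably transfected human TDP1. Compounds were applied without camptothecin, and cell growth kinetics were judged by ATP-dependent luminescence after ≥48 hr.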
* hit, by the source's call; ? = inconclusive; . = no result; ! = not active in a repeat; [ ] = another dose, or the depositor's remark. This is a sample that favours compounds with a hit; in the whole collection about 16% have one here. Unless noted, calls come from the whole dose curve; as a rule, active = well fitted curve in the direction sought with a large enough effect; inconclusive = small, poorly fitted or top-dose-only effect, or another doubt; inactive = no such curve, though single readings can be large; an effect the other way counts as inactive or inconclusive.

Preview (5 entries):
SMILES | uPA generation | miR-21 reporter | TDP1 block | DT40 TDP1 CPT | DT40 TDP1 no CPT
COc1ccccc1N(C)S(=O)(=O)c1ccc(C(=O)N2CCC2)cc1 | ? | . | -8%[0.505 µM] | ? | ?
COc1ccccc1N(C)S(=O)(=O)c1ccc(C(=O)OCC(=O)Nc2ccccc2F)cc1 | 2% | 1% | 6% | -5% | 8%
COc1ccccc1N(C)S(=O)(=O)c1ccc(C(=O)Nc2ccncc2)cc1 | 10% | . | . | ? | 18µM*
COc1ccccc1N(C)S(=O)(=O)c1ccc(C(=O)N2CCCc3ccccc32)cc1 | -2% | 19% | . | 21µM* | 23µM*
COc1ccccc1N(C)S(=O)(=O)c1ccc(C(=O)N(C)Cc2cccc(F)c2)cc1 | . | . | . | 16µM* | 16µM*

The whole of this part, repeating the preview:
SMILES | uPA generation | miR-21 reporter | TDP1 block | DT40 TDP1 CPT | DT40 TDP1 no CPT
COc1ccccc1N(C)S(=O)(=O)c1ccc(C(=O)N2CCC2)cc1 | ? | . | -8%[0.505 µM] | ? | ?
COc1ccccc1N(C)S(=O)(=O)c1ccc(C(=O)OCC(=O)Nc2ccccc2F)cc1 | 2% | 1% | 6% | -5% | 8%
COc1ccccc1N(C)S(=O)(=O)c1ccc(C(=O)Nc2ccncc2)cc1 | 10% | . | . | ? | 18µM*
COc1ccccc1N(C)S(=O)(=O)c1ccc(C(=O)N2CCCc3ccccc32)cc1 | -2% | 19% | . | 21µM* | 23µM*
COc1ccccc1N(C)S(=O)(=O)c1ccc(C(=O)N(C)Cc2cccc(F)c2)cc1 | . | . | . | 16µM* | 16µM*
COc1ccccc1N(C)S(=O)(=O)c1ccc(C(=O)Nc2cc(OC)c(OC)c(OC)c2)cc1 | ? | . | . | 16µM* | 12µM*
Cc1ccc(N2CC(C(=O)Nc3cccnc3)CC2=O)cc1Cl (configuration not stated) | -3% | 1% | . | -3% | -13%
CN(c1ccc(C(=O)NC2CCCC2)cc1)S(=O)(=O)c1ccccc1 | -8% | -9% | -5% | -23% | ?
COc1ccccc1N(C)S(=O)(=O)c1ccc(C(=O)NC2CCCCC2)cc1 | 5% | . | -1%[56.1 µM] | 15µM* | ?
COc1ccccc1N(C)S(=O)(=O)c1ccc(C(=O)Nc2ccc(C)cc2C)cc1 | -5% | . | -8%[0.505 µM] | ? | 23µM*
COc1ccccc1NC(=O)c1ccc(S(=O)(=O)N(C)c2ccccc2OC)cc1 | 16% | . | 0% | ? | ?
COc1cccc(-n2c(SCC(N)=O)nnc2-c2ccncc2)c1 | -6% | 1% | 0% | -22% | -10%

Just uPA generation (2 entries from above):
smiles,uPA generation
COc1ccccc1N(C)S(=O)(=O)c1ccc(C(=O)N2CCC2)cc1,?
COc1ccccc1N(C)S(=O)(=O)c1ccc(C(=O)Nc2ccncc2)cc1,10%

Following part.
SMILES | uPA generation | miR-21 reporter | TDP1 block | DT40 TDP1 CPT | DT40 TDP1 no CPT
COc1cccc(NC(=O)C(Sc2nnc(-c3ccncc3)n2-c2ccc(Cl)cc2)c2ccccc2)c1 (configuration not stated) | -9% | 0% | 3% | 16µM* | 21µM*
COc1ccc(C2/C(=C(\O)c3ccc4c(c3)OCCO4)C(=O)C(=O)N2c2nc(C)c(C(C)=O)s2)cc1 (configuration not stated) | -3% | -24% | 7% | -22% | 0%
CN1CCc2nc(SCc3ccc(Cl)cc3)c(C#N)c(-c3cccs3)c2C1 | . | . | . | 16µM* | ?
N#Cc1cc2c(nc1SCc1ccccc1)CCCCC2 | 0% | -14% | . | 18µM* | 21µM*
Cc1ccc(CSc2nc3c(cc2C#N)CCC3)cc1 | 1% | -11% | 3% | -9% | -2%
CN1CCc2nc(SCc3ccc(C(C)(C)C)cc3)c(C#N)cc2C1 | 15% | -3% | 7% | 23µM* | ?
CCOC(=O)CC(=O)CSc1nc2c(c(-c3cccs3)c1C#N)CCC2 | 11% | -3% | -8% | 3% | -4%
O=c1c2c3c(sc2nc2n1CCCCC2)C(O)CCC3 (configuration not stated) | -4% | -31% | 3% | -4% | ?
COCCCNc1nc2c(-c3ccccc3)nnn2c2ccccc12 | . | -11% | -4% | -22% | ?
COc1ccc(NS(=O)(=O)c2ccc(N3CCOCC3)c(NC(=O)c3ccc(OC)cc3)c2)cc1 | -1% | -2% | 6% | 16µM* | 16µM*
COc1ccc(NS(=O)(=O)c2ccc(N3CCOCC3)c(NC(=O)c3ccccc3Cl)c2)cc1 | -8% | -8% | 6% | -15% | ?
COc1ccc(NS(=O)(=O)c2ccc(N3CCOCC3)c(N)c2)cc1 | ? | . | 1% | 2.6µM* | 1.2µM*
COc1ccc(N2CCOCC2)c(NC(=O)c2ccc3c(c2)OCO3)c1 | -5% | -10% | . | ? | 21µM*
CCCCCC(=O)NC(Nc1ccc(S(N)(=O)=O)cc1)C(Cl)(Cl)Cl (configuration not stated) | 16% | -11% | -2% | 16µM* | ?
O=C(Cn1c2c(sc1=O)C1c3ccccc3OCC1CS2)Nc1ccc(Cl)c(Cl)c1 (configuration not stated) | 7% | 5% | 6% | 9.2µM* | 16µM*
COc1cc(OC)c(C=NNC(=S)NC23CC4CC(CC(C4)C2)C3)c(OC)c1 | 1% | . | . | 6.5µM* | 6.5µM*
COc1cc(/C=N/NC(=O)NC23CC4CC(CC(C4)C2)C3)ccc1OCC(N)=O | 4% | -5% | . | ? | 8.2µM*
COc1ccc(C=NNC(=S)NC23CC4CC(CC(C4)C2)C3)cc1OC | -11% | . | . | ? | ?
COc1ccc(C(=O)N2CCC3(CC2)CN(c2ccncc2)C3)cc1 | . | . | . | -17% | ?
O=C(c1ccncc1)N1CCC2(CCCN(c3ccncc3)C2)CC1 | . | . | . | 8% | -18%
COc1ccc(C(=O)N2CCC3(CCCN(c4ccncc4)C3)CC2)cc1 | . | . | . | ? | 18µM*
O=C(c1cccc(F)c1)N1CCC2(CC1)CN(c1ccccc1)C2 | . | . | . | 7.3µM* | 16µM*
O=C(c1cc(C(F)(F)F)cc(C(F)(F)F)c1)N1CCC2(CCCN(c3ccncc3)C2)CC1 | . | . | . | ? | 21µM*
O=C(c1cc(C(F)(F)F)cc(C(F)(F)F)c1)N1CCC2(CC1)CCN(c1ccccc1)CC2 | . | . | . | 6% | -10%
O=C(c1cccc(F)c1)N1CCC2(CCCN(c3ccccc3)C2)CC1 | . | . | . | -1% | ?
O=C(c1cc(C(F)(F)F)cc(C(F)(F)F)c1)N1CCC2(CC1)CN(c1ccccc1)C2 | . | . | . | ? | 13µM*
O=C1NC(=S)SC1=C1CCCC1 | -2% | -4% | . | 1% | 1%
CCc1ccc(CCC(=O)Nc2ccc(C)c(C)c2)o1 | . | -39% | 2% | ? | -6%
O=C(c1ccco1)N1CCC2(CC1)CCN(c1ccccn1)CC2 | . | . | . | -14% | ?
O=C(c1cc(C(F)(F)F)cc(C(F)(F)F)c1)N1CCC2(CC1)CCN(c1ccccn1)CC2 | . | . | . | 21µM* | 21µM*
CCCCNc1c(-c2ccc(SC(C)CC)cc2)nc2ccccn12 (configuration not stated) | 2µM* | . | 3% | 13µM* | 16µM*
CCCCNc1c(-c2cccc(SC3CCCCC3)c2)nc2ccc(Cl)cn12 | -9% | . | . | ? | ?
CCCCNc1c(-c2ccc(SC3CCCCC3)cc2)nc2ccccn12 | ? | . | . | 23µM* | 23µM*!
O=C(O)c1ccc(-n2nncc2-c2ccccc2)cc1 | -1% | 0% | 8% | -17% | -13%
CN(C)S(=O)(=O)c1ccc(C(=O)Nc2ccc(-n3nncc3-c3ccccc3)cc2)cc1 | . | 19% | 3% | 21µM* | 15µM*
O=C(Nc1ccccc1)c1ccc(-n2nncc2-c2ccccc2)cc1 | . | . | 2% | 10µM* | ?
O=C(Nc1ccc(-n2nncc2-c2ccccc2)cc1)c1cccc(F)c1 | . | 2% | 8% | ? | ?

Source: PubChem BioAssay
